Measurements published in patent publication US20030088061A1, “Materials and methods to modulate ligand binding/enzymatic activity of alpha/beta proteins containing an allosteric regulatory site” (priority 2000, published 2003).

Legend:
[1] = target: ICAM-1/Fc (Homo sapiens (Human)) (UniProt P05362); assay: adhesion of COS-7 transfectants (CD18 + CD11b) to immobilized ICAM-1/Fc, crystal violet, relative to capture on CD18 + CD11b antibodies
[2] = target: iC3b (Homo sapiens (Human)) (UniProt P01024); assay: adhesion of COS-7 transfectants (CD18 + CD11b) to immobilized iC3b, crystal violet

% of cell binding [1]: 3.1% | % of cell binding [2]: 26.4%
Substance: wild type CD11b/CD18 (Mac-1) (from UniProt P11215) (receptor)
